PubChem BioAssay AID504766 (The Scripps Research Institute Molecular Screening Center, 2011)
The entries are a selection whose mix differs from that of the whole data set. The source made the active and inactive calls.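 How the source made its calls: active means inhibition above the mean over all tested compounds plus 3 SD (cut at about 4.2% in these data); inactive means the rest.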

By UniProt entry, the sequences of proteins in these tests, tags left out. Residues count along the entry.
UniProt P51843, 207-470 limits assumed: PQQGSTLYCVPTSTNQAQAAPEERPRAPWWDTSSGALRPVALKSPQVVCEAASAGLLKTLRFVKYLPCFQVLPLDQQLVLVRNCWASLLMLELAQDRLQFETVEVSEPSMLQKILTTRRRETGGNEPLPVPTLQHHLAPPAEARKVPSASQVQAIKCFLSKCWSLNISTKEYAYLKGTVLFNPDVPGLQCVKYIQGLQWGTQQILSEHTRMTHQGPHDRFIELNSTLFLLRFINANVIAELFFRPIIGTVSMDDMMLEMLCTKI

These compounds were tested against Nuclear receptor subfamily 0 group B member 1 (Homo sapiens) (UniProt P51843) (assay: relief of DAX1 transcriptional repression – cell-based, HEK293, Gal4-DAX1, luciferase luminescence, primary screen (AID 504766;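 further: 0% = DAX1-transfected cells with DMSO and 100% = empty-vector control cells with DMSO; inhibition shows as a rise in luminescence from relieved DAX1 repression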)). Conditions: HEK293 Gal4-DAX1 luciferase reporter, at 6.75 µM, active compounds read high.

Compound	inhibition
CCC(=O)N(c1ccccc1)C1(COC)CCN(CCn2nnn(CC)c2=O)CC1	inactive: 0.33%
CCC(=O)N(c1ccccc1)C1(COC)CCN(CCc2cccs2)CC1	inactive: 0.18%
